# Apparent affinities of Ab-14 variants for a coronavirus HR2 peptide

Target: peptide PDVDLGDISGINAS, taken from heptad repeat 2 (HR2) of SARS-CoV-2 spike.

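The parent was found by panning a naive human phage display library on the peptide. Designed CDR sequences, proposed from the first random library and measured here. Their group label is 14H_Ctrl (Ctrl: baseline library sampled from a position-specific scoring matrix, with some repeated check sequences). The scFvs were displayed on barcoded MATa yeast, the peptide on MATalpha yeast. Pairs that bind mate more often; barcode pairs of the diploids are counted by sequencing. The ratio of observed to expected reads was calibrated, replicate by replicate, on BCL2-family standards whose Kd was known from biolayer interferometry. The assay was run in six technical replicates.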

The variants keep the light chain, the linker and the frameworks of Ab-14 (scFv order VH, a (GGGGS)3 linker, VL).
VH: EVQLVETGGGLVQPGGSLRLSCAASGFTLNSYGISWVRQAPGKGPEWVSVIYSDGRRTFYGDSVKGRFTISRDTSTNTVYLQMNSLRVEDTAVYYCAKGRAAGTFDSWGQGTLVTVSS
VL: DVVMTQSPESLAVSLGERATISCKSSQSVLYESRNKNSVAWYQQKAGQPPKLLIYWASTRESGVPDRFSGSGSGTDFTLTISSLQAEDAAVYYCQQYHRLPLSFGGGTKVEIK

Each variant is given by its three heavy chain CDRs, as the data file delimits them; those of the parent are GFTLNSYGIS, VIYSDGRRTFYGDSVK, GRAAGTFDS.
Numbers give log10(Kd / nM), so 0 is 1 nM and 3 is 1 µM. Smaller is tighter.
"nd" marks a missing value. The strain was present, yet no cells mated with the target were sequenced in that replicate, which points to weak or no binding.
Nonspecific signal, from three strains lacking the peptide, appeared in 1% of pairings of all heavy chain designs, centred on 2.08 (5% of these signals below 0.84); values are not corrected for it. For each scFv, signals with the empty controls are counted beside the result, with their mean in brackets.
The range of this assay differs from that of the first round, and the authors advise against merging the two.
The parent sequence was in this pool as ten entries: three were never detected, three once, and four in most replicates, with averages from 0.34 to 2.37.
The authors averaged sequences with at least three values out of six and counted those with two or fewer as poor binders.

CDR-H1	CDR-H2	CDR-H3	log10 Kd, replicates	signal with controls
GFTLNSYGIS	VIYSDARRTFYGDSVK	GRAAGTFDS	nd / nd / nd / nd / nd / nd	0/18
GVTLNSYGIS	VIYADGRRTFYGDSVK	GRAAGTFDS	1.42 / 1.39 / 1.11 / 1.27 / 1.36 / 1.60	0/18
GFTLNSYGIH	VIYSDGRRTFYGDSVK	RRSAGTFDS	nd / nd / nd / nd / nd / nd	0/18
GFTLNSYGIS	VIYSDGRRTAYDDSVK	GRAAGTFDL	nd / nd / 1.05 / 0.94 / 2.72 / 1.74	0/18
DFTLNDYGIS	VIYSDGRRTFYGDSVK	GRLAGMFDS	nd / nd / nd / nd / nd / nd	0/18
GFNLNSYGIS	VIYSDGRRTFYLDSVK	GRLAGTFDS	0.98 / 0.75 / 1.05 / 0.94 / 0.83 / 0.91	1/18 (2.74)
GFTLNSYGIS	VIYSDGSRQFYGDSFK	GRHAGTFDQ	nd / nd / nd / nd / nd / nd	1/18 (1.47)
KFTLNSYGIS	VIYSDGRRTSYGDSVK	GRSKGTFNS	nd / nd / nd / nd / nd / nd	0/18
GFTNEQYGIS	VIYADGRRTFYGDSVK	GRFAGTFDS	1.55 / 0.98 / 0.92 / 1.32 / 1.02 / 1.01	1/18 (2.59)
GFPLNSYGIS	VIYSDGRRTFYGDSVK	GRAAGTFDT	0.77 / 1.16 / 1.49 / 1.15 / 0.83 / 2.04	0/18
GFTLNEYGIS	VIYSDGRRTFYGDSVK	GSQAGTFDS	0.03 / -0.17 / 0.11 / -0.05 / 1.15 / 0.40	0/18
GFTLNSYGIS	VIYSDGRRTFYGDSVK	GRAAGTKDS	nd / nd / nd / nd / nd / nd	0/18
GFTLDSYGIS	VIYSDGRRTFYGDSVK	GRAAGTFDS	2.00 / 2.16 / nd / 0.49 / 1.35 / 2.59	0/18
GFTLDSYGIS	VIYADGRRTFYGDSVK	GRAPGTFDS	0.25 / -0.41 / -0.25 / -0.23 / -0.80 / 0.03	0/18
GFTLNSYGIS	VIYSDGRRTFYGDSVK	GGAAGTFDV	nd / 1.20 / nd / 2.18 / 1.67 / nd	1/18 (1.18)
GITLNSYGIS	VIYSDGRRTFYGGKVK	GRAAGTFDS	nd / nd / nd / nd / nd / nd	0/18
GFNLNSYGIS	VIYSDGRRTFYGDSVK	GRAAGTFSL	nd / 2.90 / nd / nd / nd / nd	0/18
GFTLTSYGIS	VIYSDGRRTFYGDSVK	GRVAGTFDM	0.29 / 3.46 / 0.73 / 0.77 / 0.87 / 0.89	0/18
GFDLNSYGIS	VIYSDGRRTFYGDSVK	RRAFGTFDS	nd / nd / nd / nd / nd / nd	0/18
GFTLNRYGIS	VIYSDGRRTFYGDSVK	GGAAGTFDS	1.76 / nd / nd / nd / 1.86 / 2.00	0/18
GFTLNSYGIS	VIMSDGRRTFYGDAVK	GRQAGQFDS	nd / nd / nd / nd / nd / nd	1/18 (1.68)
GFNLNSYGIS	VIYSDGRRKFYLDAVK	GRAAGTFDS	nd / nd / nd / 0.60 / nd / nd	0/18
GFNLDSYGIS	VIYSDGRRTAYHDSVK	GRAAVNFDV	nd / nd / nd / nd / nd / nd	1/18 (2.84)
GFTLNSYGIS	VIYSDGRRTFYGDSVK	GSIAGTFDS	1.03 / 2.27 / 1.65 / 0.79 / 0.58 / 1.73	0/18
GFTLQSYGIS	VIYSDGRRTFYGDSVK	GRAAGNFDS	nd / nd / nd / nd / nd / nd	0/18
GFTLNEYGIS	VIYSDGRRHFYGQSVK	GRAAGTFDS	nd / nd / nd / nd / nd / nd	0/18
GFHLNSYGIS	VIYSDGRRTFYGDSVR	GRNAGTFDV	0.92 / nd / nd / 0.87 / nd / 1.74	0/18
GFGVNSYGIS	VIYSDGRRTFYGDSFS	GQAAGTPDS	nd / nd / nd / nd / nd / nd	0/18
GFTLNDYGIS	VIYSDGRRVFYGDDVK	GRAPGTFDY	nd / nd / nd / nd / 2.31 / nd	0/18
GFTLNSYGIS	VIYSDGRRTMYGDSVK	GRAAATFDS	nd / nd / nd / nd / nd / nd	0/18
GFTLNSYGIS	VIYADGRRTFYADSVK	GRAAGTFDS	nd / nd / nd / nd / nd / nd	0/18
GFTPNSYGIS	VIYSDGRRTFYGDSVK	GRYAATFDS	nd / nd / nd / nd / nd / nd	0/18

Extract of 4 entries:

CDR-H1	CDR-H2	CDR-H3	log10 Kd, replicates	signal with controls
GFTLDSYGIS	VIYSDGRRTFYGDSVK	GRAAGTFDS	2.00 / 2.16 / nd / 0.49 / 1.35 / 2.59	0/18
GFNLDSYGIS	VIYSDGRRTAYHDSVK	GRAAVNFDV	nd / nd / nd / nd / nd / nd	1/18 (2.84)
GFTLNRYGIS	VIYSDGRRTFYGDSVK	GGAAGTFDS	1.76 / nd / nd / nd / 1.86 / 2.00	0/18
GFTLNEYGIS	VIYSDGRRTFYGDSVK	GSQAGTFDS	0.03 / -0.17 / 0.11 / -0.05 / 1.15 / 0.40	0/18

Reference: Li et al. 2023, doi:10.1038/s41467-023-39022-2. File: FLAb, binding data.